Data: BindingDB's records for doi:10.1124/jpet.102.047183 (Abbott Laboratories, 2003)
pKi: −log10 of the molar value. Several values for one entry are separate records, joined by “and”; a condition that tells them apart may be missing. Identical values can stand only once.

Sequences of proteins named here, by UniProt entry; tags and fusion partners are left off. A change or cut given only in a name is not applied to a line headed by its entry.
UniProt Q5PPG3, whole entry: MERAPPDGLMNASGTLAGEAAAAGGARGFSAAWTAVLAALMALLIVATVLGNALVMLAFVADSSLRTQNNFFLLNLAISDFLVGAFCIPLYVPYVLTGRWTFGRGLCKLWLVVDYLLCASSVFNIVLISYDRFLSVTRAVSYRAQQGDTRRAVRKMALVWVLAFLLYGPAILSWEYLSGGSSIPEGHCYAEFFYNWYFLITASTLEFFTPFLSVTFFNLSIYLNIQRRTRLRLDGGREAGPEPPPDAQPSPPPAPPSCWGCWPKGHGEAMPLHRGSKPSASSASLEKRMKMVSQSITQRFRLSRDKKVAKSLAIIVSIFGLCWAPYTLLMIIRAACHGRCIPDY
UniProt Q9Y5N1: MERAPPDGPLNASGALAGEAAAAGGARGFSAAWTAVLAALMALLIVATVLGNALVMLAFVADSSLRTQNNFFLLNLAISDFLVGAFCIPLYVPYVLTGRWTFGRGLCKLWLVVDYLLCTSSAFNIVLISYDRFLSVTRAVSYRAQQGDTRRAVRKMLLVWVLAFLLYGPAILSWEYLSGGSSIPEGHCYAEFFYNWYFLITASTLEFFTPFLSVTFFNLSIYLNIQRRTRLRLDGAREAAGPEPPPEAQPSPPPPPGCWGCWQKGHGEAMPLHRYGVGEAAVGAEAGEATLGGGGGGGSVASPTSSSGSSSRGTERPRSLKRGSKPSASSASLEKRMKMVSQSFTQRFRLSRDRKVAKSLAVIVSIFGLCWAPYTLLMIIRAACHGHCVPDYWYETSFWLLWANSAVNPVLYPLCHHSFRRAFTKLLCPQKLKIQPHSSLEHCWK

What was measured:
Hrh3 protein = Hrh3 protein (Rattus norvegicus, UniProt Q5PPG3)
Histamine H3 receptor = Histamine H3 receptor (Homo sapiens, UniProt Q9Y5N1)

| Compound | pKi (Hrh3 protein) | pKi (Histamine H3 receptor) |
| --- | --- | --- |
| NC(=NCc1ccc(Cl)cc1)SCCCc1cnc[nH]1 [VUF 9153] | 9.74 and 9.46 | 9.44 and 9.11 |
| C[C@@H](NC(=O)c1ccco1)C(=O)N1CCN(CCCOc2ccc(C(=O)C3CC3)cc2)CC1 | – | 7.03 and 6.93 |
